Data on 103 molecules can be found in PubChem BioAssay AID463187 (University of Pittsburgh Molecular Library Screening Center, 2010).

Sequences of proteins named here, by UniProt entry; tags and fusion partners are left off. A change or cut given only in a name is not applied to a line headed by its entry.
UniProt P08631: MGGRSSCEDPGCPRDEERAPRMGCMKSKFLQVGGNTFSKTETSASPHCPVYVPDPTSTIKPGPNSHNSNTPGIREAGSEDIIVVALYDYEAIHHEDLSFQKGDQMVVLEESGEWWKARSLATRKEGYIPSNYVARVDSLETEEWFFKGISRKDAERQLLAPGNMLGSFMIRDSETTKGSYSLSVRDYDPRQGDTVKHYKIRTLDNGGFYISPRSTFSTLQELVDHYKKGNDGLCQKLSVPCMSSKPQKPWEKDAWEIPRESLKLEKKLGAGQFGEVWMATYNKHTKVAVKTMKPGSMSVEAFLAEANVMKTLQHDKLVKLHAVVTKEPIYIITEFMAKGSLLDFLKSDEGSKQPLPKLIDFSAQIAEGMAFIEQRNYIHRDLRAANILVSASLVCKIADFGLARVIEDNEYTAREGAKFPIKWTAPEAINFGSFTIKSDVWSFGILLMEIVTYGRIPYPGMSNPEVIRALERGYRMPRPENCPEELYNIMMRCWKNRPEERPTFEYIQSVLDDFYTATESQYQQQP

This is a selection; strong and weak results do not stand in their true shares. The source made the active and inactive calls.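 Rule for the calls: active = Hck-Nef kinase inhibition above about 50% (limit read from the data); inactive = inhibition below that limit.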

This experiment concerns the target Tyrosine-protein kinase HCK (Homo sapiens) (UniProt P08631). In words: inhibitors of Nef-activated human Hck kinase, primary screen, biochemical, Z-Lyte FRET, 384-well, Hck-YEEI (AID 463187).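 Note: 0% = DMSO with Hck plus Nef and 100% = Hck alone without Nef.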 The note with it: Recombinant Hck-YEEI plus Nef, Z-Lyte FRET kinase assay; at 20 µM; hits give high values.
Broadly, the inhibition is the drop in the measured response relative to a control, in per cent. For `CCN(CC)C(=S)SC(NC=O)C(Cl)(Cl)Cl` (stereo not drawn), the inhibition is inactive: -0.1%.

In the case of `CC(C)NC(=O)NP(=O)(Oc1ccccc1)Oc1ccccc1`, the inhibition was inactive: -6.65%.

For `O=[N+]([O-])c1cc([N+](=O)[O-])c(-c2ccn[nH]2)s1`, the inhibition is inactive: 8.12%.

`ClCCSc1nnc(-c2cccnc2)o1`: the inhibition was inactive: 0.86%.

For `CC(C)c1ccc(OP(=O)(Nc2ccccn2)Oc2ccccc2F)cc1` (stereo not drawn), the inhibition was inactive: -17.2%.

On to `Cc1ccc(OP(=O)(Nc2ccc([N+](=O)[O-])cn2)Oc2ccc(C)cc2)cc1`, for which the inhibition was inactive: 7.15%.

Consider `Cc1ccc2nc3c(c(C)c2c1)CC(C(Cl)Cl)S3` (stereo not drawn), for which the inhibition is inactive: 2.68%.

As to `O=[As](O)(c1ccc(O)cc1)c1ccccc1O`, the inhibition is inactive: -14.3%.

`C[As](=O)(O)c1cccc(C(=O)O)c1`: the inhibition was inactive: -2.63%.

For `COc1ccc(N/C(=N/P(=O)(N2CCOCC2)N2CCOCC2)N2CCOCC2)cc1`, the inhibition was inactive: 26.1%.

Regarding `COc1ccc2nc(NP(=O)(c3ccccc3)c3ccccc3)sc2c1`, the inhibition was inactive: 14.9%.

For the molecule `COc1cc(I)ccc1[As](=O)(O)O`, the inhibition was inactive: 9.11%.

On to `Cc1c2c(nc3ccccc13)SC(C(Cl)Cl)C2` (stereo not drawn), for which the inhibition was inactive: 2.71%.

Consider `O=C(OC1CN2CCC1CC2)C12CC3CC(CC(C3)C1)C2` (stereo not drawn), for which the inhibition is inactive: -1.73%.

`Cc1cc(=O)[nH]c(N[N+](=O)[O-])n1`: the inhibition was inactive: 11.5%.

Consider `CCC(C)N(CC(C)C)C(=S)SC(NC(C)=O)C(Cl)(Cl)Cl` (stereo not drawn), for which the inhibition was inactive: 6.26%.

For `CCOC(=O)c1ccc(NC(=O)C(C)(CCl)SC)cc1` (stereo not drawn), the inhibition was inactive: 17.1%.

With `O=C(COc1ccccc1)OC1CN2CCC1CC2` (stereo not drawn), the inhibition is inactive: 1.16%.

Consider `COP1(=S)c2c(C)nn(CCC#N)c2N=C(c2ccc(F)cc2)N1C` (stereo not drawn), for which the inhibition is inactive: 1.23%.

On to `Cc1cc(SC(NC=O)C(Cl)(Cl)Cl)ncn1` (stereo not drawn), for which the inhibition is inactive: 9.62%.

Turning to `O=P(Nc1ccccn1)(c1cccc2ccccc12)c1cccc2ccccc12`, the inhibition is inactive: -2.1%.

Consider `O=[N+]([O-])c1ccc(Nc2ccc(Oc3ccc([N+](=O)[O-])cc3[N+](=O)[O-])cc2)c([N+](=O)[O-])c1`, for which the inhibition was inactive: 6.38%.

Turning to `CCOC(=O)Nc1cccc([As](=O)(O)O)c1`, the inhibition was inactive: 0.78%.

Consider `Cc1cc(SC(NC(=O)c2ccccc2)C(Cl)(Cl)Cl)nc(C(C)C)n1` (stereo not drawn), for which the inhibition was inactive: -0.375%.

For `CCOC(=O)Nc1ccc([As](=O)(O)O)c(O)c1`, the inhibition is inactive: 4.26%.

As for `Nc1cccc([As](=O)(O)c2ccccc2)c1`, the inhibition was inactive: 6.19%.

Regarding `O=P1(Nc2ccc(Br)cn2)COc2ccccc2OC1`, the inhibition is inactive: 0.12%.

As to `Cc1ccc(OCC(=O)OC2CN3CCC2CC3)cc1` (stereo not drawn), the inhibition was inactive: -0.778%.

For the molecule `O=[As](O)(c1cccs1)c1cccs1`, the inhibition is inactive: 20.2%.

Regarding `O=P1(Nc2ncccn2)COc2ccccc2OC1`, the inhibition was inactive: 2.07%.

Turning to `CN(C)C1(CNC(=O)c2ccc(S(C)(=O)=O)cc2)CCCCC1`, the inhibition was inactive: 2.84%.

As to `O=C(/C=C/c1ccccc1)OC1CN2CCC1CC2` (stereo not drawn), the inhibition was inactive: -12.7%.

For `Cc1nn(-c2ccccc2)c2c1P(=O)(N1CCOCC1)N(C)C(c1ccccc1)=N2` (stereo not drawn), the inhibition was inactive: -0.304%.

As to `CC1CCC(C(C)C)C(OP(=O)(Nc2ccccn2)c2ccccc2)C1` (stereo not drawn), the inhibition was inactive: 23.3%.

Regarding `CC(C)/C=N\N=C(\N)N[N+](=O)[O-]`, the inhibition is inactive: 0.179%.

In the case of `O=[As](O)(c1ccccc1Br)c1ccccc1Br`, the inhibition is inactive: 9.81%.

As to `CC1(CBr)Cn2c(nc3ccccc3c2=O)S1` (stereo not drawn), the inhibition was inactive: 5.98%.

Consider `Clc1n[nH]nc1-c1nn[nH][15n]1`, for which the inhibition is inactive: 0.161%.

Turning to `CC(C)(C)C(=O)NC(Sc1ncccn1)C(Cl)(Cl)Cl` (stereo not drawn), the inhibition was inactive: 10.9%.

`O=P1(Nc2ccccn2)COc2ccccc2OC1`: the inhibition was inactive: 0.296%.

Consider `CCOP(=O)(Nc1ccc(C)cn1)OCC`, for which the inhibition was inactive: 18.1%.

As to `COc1cc(C2NCCC3(OCCO3)C2(C)C)cc(OC)c1OC` (stereo not drawn), the inhibition is inactive: -2.47%.

`CCOP(=O)(Nc1cccc2ccccc12)OCC`: the inhibition is inactive: -9.44%.

For `Cc1ccc(NCCc2c([N+](=O)[O-])cc([N+](=O)[O-])cc2[N+](=O)[O-])cc1`, the inhibition was inactive: 9.75%.

On to `Nc1cccc2c([As](=O)(O)O)cccc12`, for which the inhibition was inactive: -6.35%.

For `CCCOP(=S)(Nc1nc(N)cc(=O)[nH]1)OCCC`, the inhibition was inactive: 16.4%.

Take `O=[As](O)(c1cccc(O)c1)c1cccc(O)c1`: the inhibition is inactive: 3.13%.

Take `Cc1cccc(OCC(=O)OC2CN3CCC2CC3)c1` (stereo not drawn): the inhibition is inactive: -0.499%.

As to `O=C(OC1CN2CCC1CC2)c1ccc(Cl)cc1` (stereo not drawn), the inhibition is inactive: 14.9%.

For the molecule `COc1cc(C(=O)NCC2(N3CCOCC3)CCCCC2)cc(Cl)c1OC(C)C`, the inhibition is inactive: 27.4%.

Take `O=[As](O)(O)c1cccnc1`: the inhibition was inactive: 2.39%.

For the molecule `CCOP1(=S)c2c(C)nn(CCC#N)c2N=C(c2ccc(F)cc2)N1C` (stereo not drawn), the inhibition is inactive: 0.982%.

For the molecule `CN(C(=O)Cc1ccccc1)[C@@H]1CC[C@]2(CCCO2)C[C@H]1N1CCCC1`, the inhibition was inactive: 28.7%.

Consider `O=[N+]([O-])c1ccc2c(c1)nnn2O`, for which the inhibition is inactive: -18%.

`NC(=O)Nc1ccc([As](=O)(O)O)cc1`: the inhibition is inactive: 29.6%.

As to `O=C(O)COc1ccc([As](=O)(O)O)cc1[N+](=O)[O-]`, the inhibition is inactive: -6.57%.

As to `Nc1ccccc1[As](=O)(O)c1ccccc1`, the inhibition was inactive: 5.8%.

With `CCOP1(=S)c2c(C)nn(CCC#N)c2N=C(c2ccccc2F)N1C` (stereo not drawn), the inhibition was inactive: 1.21%.

As to `O=P(Nc1nccs1)(c1ccccc1)c1nc2ccccc2s1` (stereo not drawn), the inhibition was inactive: -12.6%.

As for `O=P(Nc1nccs1)(Oc1ccccc1)Oc1ccccc1`, the inhibition was inactive: 34.6%.

For the molecule `CS(=O)(=O)c1cc([N+](=O)[O-])c2no[n+]([O-])c2c1`, the inhibition was inactive: -162%.

For the molecule `Cc1ccccc1OP(=O)(Nc1ccccn1)Oc1ccccc1C`, the inhibition is inactive: 20.1%.

For `CN(C)C(=O)Oc1noc2ccccc12`, the inhibition was inactive: 14%.

Turning to `O=c1c2cc([N+](=O)[O-])ccc2[nH]c2c([N+](=O)[O-])cc([N+](=O)[O-])cc12`, the inhibition was inactive: 25.2%.

Turning to `CCC(=O)N1C2C3N(C(=O)CC)C1C1N(C(=O)CC)C(C(N1C(=O)CC)N3C(=O)CC)N2C(=O)CC`, the inhibition was inactive: 0.57%.

With `COC(=O)c1cc2c(s1)N=C(c1ccccc1)N(C)P2(=O)N1CCOCC1` (stereo not drawn), the inhibition is inactive: 1.59%.

For the molecule `CC(=O)NC(SC(=S)N(CC(C)C)CC(C)C)C(Cl)(Cl)Cl` (stereo not drawn), the inhibition was inactive: 1.87%.

As for `Cc1ccc(OP(=O)(Nc2ccccn2)Oc2ccc(C)cc2)cc1`, the inhibition is inactive: 15.8%.

On to `c1ccc(-c2nn[nH]n2)c(-c2nn[nH]n2)c1`, for which the inhibition is inactive: 20.1%.

Regarding `Cc1ccc(NP(=O)(Oc2cccc(C)c2)Oc2cccc(C)c2)nc1`, the inhibition is inactive: 6.43%.

Consider `CCOC(=O)NC(Sc1ccccc1)C(Cl)(Cl)Cl` (stereo not drawn), for which the inhibition is inactive: 1.03%.

`O=C(NC1CCS(=O)(=O)C1)NP(=S)(Oc1ccccc1)Oc1ccccc1` (stereo not drawn): the inhibition is inactive: 2.52%.

With `CCNC(=S)/N=C(\N)N[N+](=O)[O-]`, the inhibition was inactive: 1.03%.

As to `CC(=O)Nc1ccc([As](=O)(O)O)c(O)c1`, the inhibition is inactive: 5.5%.

For `CC(=O)Nc1ccc(Oc2c([N+](=O)[O-])cc([N+](=O)[O-])cc2[N+](=O)[O-])cc1`, the inhibition was inactive: 25.1%.

Consider `C[C@@H]1C=CCP(=O)(Oc2ccccc2)O1` (stereo partly drawn), for which the inhibition was inactive: 25.2%.

Take `C[C@H]1OP(=O)(Oc2ccccc2)C[C@@H]2O[C@@H]21` (stereo partly drawn): the inhibition is inactive: 30.8%.

On to `CC(C)(C)C(=O)NC(Sc1ccccc1)C(Cl)(Cl)Cl` (stereo not drawn), for which the inhibition was inactive: -7.88%.

`O=P1(Nc2nc3ccc(Cl)cc3s2)COc2ccccc2O1` (stereo not drawn): the inhibition was inactive: -0.716%.

For the molecule `CCOc1ccc(C2=NCC(CBr)S2)cc1` (stereo not drawn), the inhibition is inactive: 8.4%.

Consider `c1nnnn1CCn1cnnn1`, for which the inhibition was inactive: -0.788%.

Take `O=P(Nc1nccs1)(c1ccccc1)c1ccccc1`: the inhibition is inactive: 1.01%.

Turning to `CC(C)C(=O)NC(Sc1ccccc1)C(Cl)(Cl)Cl` (stereo not drawn), the inhibition was inactive: 6.01%.

With `O=C(OC1CN2CCC1CC2)c1cccc(Cl)c1` (stereo not drawn), the inhibition is inactive: 0.644%.

Regarding `Nc1ccc([As](=O)(O)c2ccc([N+](=O)[O-])cc2)cc1`, the inhibition is inactive: 1.07%.

For the molecule `C(Cc1nn[nH]n1)Cc1nn[nH]n1`, the inhibition was inactive: 5.14%.

Turning to `O=[As](O)(c1ccccc1)c1ccc(O)cc1`, the inhibition is inactive: 9.15%.

As to `CC(=O)NC(SC(=S)N(C)C)C(Cl)(Cl)Cl` (stereo not drawn), the inhibition was inactive: 5.24%.

For `O=[N+]([O-])c1ncn(CCn2cnc([N+](=O)[O-])n2)n1`, the inhibition is inactive: 17.2%.

As to `O=P(Nc1nc2ccccc2s1)(c1ccccc1)c1ccccc1`, the inhibition was inactive: -1.16%.

For the molecule `C[C@H]1OP(=O)(Oc2ccccc2)[C@H](O)[C@H](O)[C@H]1N=[N+]=[N-]` (stereo partly drawn), the inhibition was inactive: 24.9%.

Regarding `O=P(Nc1ccccn1)(c1ccc(Br)cc1)c1ccc(Br)cc1`, the inhibition is inactive: -9.35%.

For `O=C(O)CNc1ccc([As](=O)(O)O)cc1`, the inhibition is inactive: 8.59%.

For the molecule `O=[N+]([O-])c1cccc(NC2=NCC(CBr)S2)c1` (stereo not drawn), the inhibition is inactive: -5.08%.

As for `O=[N+]([O-])c1ncn(CCn2ncnc2[N+](=O)[O-])n1`, the inhibition is inactive: 19%.

With `CC(C)(C)C(=O)NC(Sc1ccncn1)C(Cl)(Cl)Cl` (stereo not drawn), the inhibition is inactive: -8.77%.

In the case of `O=C(Nc1cc([As](=O)(O)O)ccc1O)c1ccccc1`, the inhibition was inactive: 8.55%.

With `CC1CCN(C(=O)Oc2c(Cl)cc(Cl)c3cccnc23)CC1`, the inhibition was inactive: -0.172%.

Turning to `CC(C)=N/N=C(\N)N[N+](=O)[O-]`, the inhibition was inactive: 21.9%.

For `CN(C)C(=O)OCCc1n(C)cc[n+]1C`, the inhibition was inactive: 0.794%.

As for `CCN(/C(=N/P(=O)(N1CCOCC1)N1CCOCC1)N1CCOCC1)c1ccc(OC)cc1`, the inhibition is inactive: 24.9%.

For the molecule `Nc1ccc([As](=O)(O)c2ccc(N)cc2)cc1`, the inhibition is inactive: 12.1%.

As to `C[N+]1=C2C=CC=CC=C2SC12C([N+](=O)[O-])=CC([N+](=O)[O-])=C[C-]2[N+](=O)[O-]` (stereo not drawn), the inhibition is inactive: 5.46%.
